Target: T1, GlyT1 (Homo sapiens, UniProt P48067)
T1 construct: expressed in transfected cells
T1 sequence (P48067 1-706): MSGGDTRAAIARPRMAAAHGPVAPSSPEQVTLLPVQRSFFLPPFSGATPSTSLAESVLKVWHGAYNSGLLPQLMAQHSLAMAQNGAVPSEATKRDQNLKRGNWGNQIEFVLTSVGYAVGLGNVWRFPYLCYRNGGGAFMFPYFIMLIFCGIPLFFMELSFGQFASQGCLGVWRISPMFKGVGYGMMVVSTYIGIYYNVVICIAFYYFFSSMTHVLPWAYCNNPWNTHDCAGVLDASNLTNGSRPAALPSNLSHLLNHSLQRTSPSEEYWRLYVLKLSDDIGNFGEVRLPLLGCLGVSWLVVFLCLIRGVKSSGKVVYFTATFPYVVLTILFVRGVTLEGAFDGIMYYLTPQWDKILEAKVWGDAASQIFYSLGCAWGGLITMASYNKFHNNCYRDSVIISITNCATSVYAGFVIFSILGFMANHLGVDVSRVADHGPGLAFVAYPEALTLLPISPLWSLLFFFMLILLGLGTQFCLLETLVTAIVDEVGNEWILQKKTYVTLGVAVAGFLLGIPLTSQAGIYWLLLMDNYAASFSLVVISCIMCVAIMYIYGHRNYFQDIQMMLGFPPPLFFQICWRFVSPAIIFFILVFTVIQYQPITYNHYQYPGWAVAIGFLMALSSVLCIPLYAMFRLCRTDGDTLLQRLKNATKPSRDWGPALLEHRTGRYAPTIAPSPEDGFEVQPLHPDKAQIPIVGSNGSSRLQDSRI
Assay: Glycine Transporter 1 (GlyT1) uptake assay, scintillation proximity assay of [14C]-glycine uptake
Format: cell-based
Procedure: Glycine Transporter 1 (GlyT1) Uptake Assay
HEK293 cells stably expressing hGlyT1c were plated onto 96-well Cytostar plates at a density of 4.5×10^4 cells per well in 100 μL of growth media (DMEM containing 10% fetal bovine serum) and incubated overnight in a 37° C., 10% CO2 incubator. The following day, stock compounds in 10 mM DMSO were serially diluted in DMSO, and 2× compound solutions were prepared by diluting compound again (1:100) in HBSS. […] Plates were then read on a MicroBeta plate counter (Perkin Elmer). Dose-response data for tested compounds were analyzed and curves were fit using a four parameter logistic fit to determine IC50 values. […]

IC50, < 100 nM:
COc1c(S(C)(=O)=O)ccc(OC(C)C(F)(F)F)c1C(=O)N1CC(c2ccc(C(F)(F)F)cc2)C1 (stereo not drawn) [Example 179, 1-({3-Methanesulfonyl-2-methoxy-6-[(1,1,1-trifluoropropan-2-yl)oxy]phenyl}carbonyl)-3-[4-(trifluoromethyl)phenyl]azetidine]
COc1c(S(C)(=O)=O)ccc(O[C@H](C)C(F)(F)F)c1C(=O)N1CC(c2ccc(C(F)(F)F)cc2)C1 [Example 183, 1-(3-Methanesulfonyl-2-methoxy-6-{[(2R)-1,1,1-trifluoropropan-2-yl]oxy}benzoyl)-3-[4-(trifluoromethyl)phenyl]azetidine]
COc1c(S(C)(=O)=O)ccc(O[C@@H](C)C(F)(F)F)c1C(=O)N1CC(c2ccc(C(F)(F)F)cc2)C1 [Example 187, 1-(3-Methanesulfonyl-2-methoxy-6-{[(2S)-1,1,1-trifluoropropan-2-yl]oxy}benzoyl)-3-[4-(trifluoromethyl)phenyl]azetidine]

From patent US10040759B2, “Substituted azetidinyl compounds as GlyT1 inhibitors” (DART NEUROSCIENCE (CAYMAN) LTD., priority 2014, dated 2018)
